The values that follow come from publication PMC5020621.

Test [1] has as its target Complement factor H (human) (UniProt P08603). The test can be described thus: SPR; CFH immobilised; uromodulin in HBS-EP solution buffer, each sample sonicated 5 min before injection to depolymerize; regeneration with 30 ul of 10 mM NaOH. For orientation: SPR reads the build-up and loss of mass on a sensor chip optically.
Test [2] has the same target. The test can be described thus: SPR; Biacore 3000; CFH immobilised on CM5 chip (~600 RU) by amine coupling; running buffer HBS-EP pH 7.4; uromodulin diluted in ultrapure water, 1.25-20 uM, 30 ul/min; steady-state affinity; no regeneration.

For the substance “Uromodulin (from UniProt P07911 25-614) (natural protein)”, the values for the Kd in test [1] and in test [2] were 0.133 nM and 4070 nM, respectively.

Usually Kd stands for the free concentration of one partner at which half of the binding sites on the other are occupied at equilibrium, for simple one-to-one binding. High values mean lower affinity, low ones higher affinity.
